Laboratory results taken from patent publication US20100280098A1, “RECEPTOR TARGETED OLIGONUCLEOTIDES” (priority 2007, published 2010).

Experiments:
A375SM-Luc705-B cells [1] = assay: Luciferase splice-correction assay with albumin conjugates; type: cell-based; settings: for luciferase activity: 25-200 nM, 72 h
Procedure: Oligonucleotide Treatment of Cells and Luciferase Assay: A375SM-Luc705-B cells were seeded onto 12 well plates at 1×10^5 cells per well in medium containing 10% FBS. After 24 h, cells were rinsed, placed in OPTI-MEM (Invitrogen, Carlsbad, Calif., United States of America) and treated with free 623 oligonucleotide, various versions of the albumin-PEG-623 oligonucleotide conjugates, or 623 oligonucleotide complexed with LIPOFECTAMINE™ 2000 (Invitrogen, Carlsbad, Calif., United States of America) per manufacturer's instruction. After 4 h of treatment, FBS was added to each well to 1%. After 24 h, cells were washed with DMEM medium containing 10% FBS and incubated in DMEM supplemented with 1% FBS for 48 h prior to harvest. Activation of luciferase gene expression due to correction of splicing by oligonucleotide 623 was determined using a Luciferase assay kit (Promega, Madison, Wis., United States of America) on a Monolight 2010 instrument (Analytical Luminescence Laboratory, San Diego, Calif., United States of America)

[2] = system: A375 melanoma cells containing an inducible luciferase reporter gene; assay: In vivo targeting, tumor luciferase by bioluminescence imaging; design: species or system SCID mice; settings: compared to mice that received saline or free oligonucleotide
Procedure: Immunodeficient mice (SCID mice) were inoculated with A375 melanoma cells containing an inducible luciferase reporter gene in the right flank. […] However, upon effective delivery of splice shifting antisense oligonucleotide to the cell nucleus, the abnormal intron is spliced out and luciferase protein is produced. Therefore the reporter gene provides an effective readout for delivery of a SSO to a tumor in vivo.
The tumors were allowed to grow to a certain size and then the mice were injected with either saline; RGD-623; or free 623 oligonucleotide (SEQ ID NO: 1). After a period of incubation to allow the SSO to act, the mice were injected with luciferin and the activity of the luciferase in the tumors was monitored by bioluminescence imaging using an IVIS imaging system.

Micrococcal nuclease = Micrococcal nuclease (Staphylococcus aureus, UniProt P00644); assay: Nuclease stability by polyacrylamide gel; type: in vitro ADME; settings: 0-12 h, 37° C.
Procedure: Nuclease Stability: Micrococcal nuclease (4000 gel units) was added to solutions of 623-Tamra or RPA-623-Tamra and the samples were incubated for various periods of time at 37° C. The reactions were then stopped by the addition of EDTA (50 mM), and the fluorescent samples were analyzed on 10% polyacrylamide gels and examined under long-wavelength ultraviolet illumination to detect possible nucleolytic cleavage of the Tamra-labeled oligonucleotides.

A375SM-Luc705-B cells [3] = assay: Confocal microscopy of live cells, albumin conjugates; type: cell-based; settings: 100 nM
Procedure: Cellular Uptake and Confocal Microscopy: Cells were seeded onto either 12 well plates at 1×10^5 cells per well for cellular uptake measurements or in 12 well glass-bottom plates at 2×10^4 cells per well for live cell analysis by confocal microscopy. After treatment of cells with Tamra labeled oligonucleotide derivatives for 24 h, the cells were either lysed for measurement of Tamra fluorescence using a Nanodrop microfluorimeter (Nanodrop Technologies, Wilmington, Deleware, United States of America) or washed with DMEM containing 10% FBS and then placed in DMEM without phenol red, supplemented with 1% FBS, for confocal microscopy analysis. Co-localization of Tamra-labeled oligonucleotides with Alexa 488 labeled Transferrin or Dextran (Molecular Probes, Beaverton, Oreg., United States of America) in live cell was also examined by confocal microscopy. An Olympus confocal microscope with a 60× objective lens was used, and the data were processed using Fluoview software (Olympus, Center Valley, Pa., United States of America) as described in Example 1.

A375SM-Luc705-B cells [4] = system: A375SM-Luc705-B cells
[5] = Molecular size by size-exclusion FPLC and quasi-elastic light scattering; type: physicochemical
A375SM-Luc705-B cells [6] = system: A375SM-Luc705-B cells; remark: listed apart in the source

CPA-623: albumin-623 conjugate where the PEG chains were terminated with cysteine
luciferase activity (A375SM-Luc705-B cells [1]): failed to achieve an effect

RGD-623: RGD conjugate of 623 injected into tumor-bearing mice; FIG. 21 legend calls it RGD-PEG-HSA-623
luciferase activity in the tumor [2]: substantial increase in luciferase activity

RPA-623-Tamra: RPA-623 in which the 623-SH included a 3′-Tamra fluorophore
stability to micrococcal nuclease (Micrococcal nuclease): no loss of Tamra-labeled oligonucleotide | fluorescence overlap with dextran (A375SM-Luc705-B cells [3]; 2 h): substantial overlap | fluorescence overlap with transferrin (A375SM-Luc705-B cells [3]; 2 h): little overlap | fluorescence overlap with transferrin and dextran (A375SM-Luc705-B cells [3]; 24 h): fluorescence overlap in both cases | intracellular Tamra fluorescence (A375SM-Luc705-B cells [3]; live cells, 24 h): substantial intracellular Tamra fluorescence | nuclear accumulation of Tamra fluorescence (A375SM-Luc705-B cells [3]; live cells, 24 h): as well as in the nucleus; also recorded: Nuclear accumulation of Tamra fluorescence was observed | nuclear accumulation of Tamra fluorescence (A375SM-Luc705-B cells [3]; live cells, 24 h, listed as RGD-PEG-HSA-623-Tamra conjugate): Tamra fluorophore accumulated in nuclei

RPA-623: RGD-PEG-human serum albumin conjugate carrying 623 oligonucleotides through cleavable disulfide
acute (short-term) toxicity (A375SM-Luc705-B cells [4]): little acute or long-term toxicity | average radius relative to unmodified albumin carrier [5]: about 2.7 times | hydrodynamic radius ([5]; estimated): approximately 6 nm | magnitude of the effect compared with LIPOFECTAMINE™ complex (A375SM-Luc705-B cells [1]): almost equaled that of the LIPOFECTAMINE™ complex | time course of luciferase activation (A375SM-Luc705-B cells [1]; 200 nM): rose gradually, attained a maximum at 72 h post-treatment, and then gradually declined | time of maximum luciferase activity (A375SM-Luc705-B cells [1]; 200 nM, post-treatment): 72 h | luciferase activity (A375SM-Luc705-B cells [1]): concentration-dependent increase in luciferase activity | long-term toxicity (colony formation) (A375SM-Luc705-B cells [6]): little acute or long-term toxicity

RPA-MM: RGD-PEG-albumin conjugate with mismatched oligonucleotide (SEQ ID NO: 2)
luciferase activity (A375SM-Luc705-B cells [1]): failed to achieve an effect

Entries after “also recorded” stand apart in the source; their conditions may differ.
